The conditions of this experiment: mouse, in vivo.

`OC[C@H]1OC(O)[C@H](F)[C@@H](O)[C@@H]1O` (stereo partly shown) [^18F-FDG, ^18F- Fluorodeoxyglucose]: the “Heart uptake among MI mice, sham-operated mice and naïve animals” value was “comparable”.

For the origin of these results see publication PMC6435034 (Circulation research, 2019).
